# Patent US7638490B2, “Methods of affecting feeding and weight in mammals by administration of relaxin-3” (priority 2004, dated 2009)
# Amino acid sequences for entries named in this document (tags omitted). A change or cut given only in a name is not applied to a line headed by its entry.
# UniProt Q9NSD7: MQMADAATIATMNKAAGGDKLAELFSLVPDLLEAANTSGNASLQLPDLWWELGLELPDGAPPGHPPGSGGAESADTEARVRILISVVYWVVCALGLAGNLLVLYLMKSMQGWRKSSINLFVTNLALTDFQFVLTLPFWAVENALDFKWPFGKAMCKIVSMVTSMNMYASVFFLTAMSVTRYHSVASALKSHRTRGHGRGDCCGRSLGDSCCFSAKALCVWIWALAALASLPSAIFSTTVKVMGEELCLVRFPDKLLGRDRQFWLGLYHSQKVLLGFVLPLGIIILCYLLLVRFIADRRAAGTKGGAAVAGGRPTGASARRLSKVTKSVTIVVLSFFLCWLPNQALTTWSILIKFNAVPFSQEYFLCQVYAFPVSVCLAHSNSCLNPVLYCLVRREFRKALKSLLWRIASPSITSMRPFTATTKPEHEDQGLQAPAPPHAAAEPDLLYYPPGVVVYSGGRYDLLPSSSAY
# How the values were obtained:
# [1] = test system: SE302 cells without SALPR expression; experiment: Specificity control: transcription activity in SE302 cells without SALPR expression; settings: 20 μg/ml test compound, 3 μmol/L forskolin, 3 nmol/L relaxin-3
# SALPR = SALPR (Homo sapiens, UniProt Q9NSD7); experiment: Screening for relaxin-3 antagonistic substance using SALPR-SE302 cells (CRE-PLAP reporter); format: cell-based; settings: 20 μg/ml test compound, 3 μmol/L forskolin, 3 nmol/L relaxin-3
smiles,measurement,setting,value
C1=Cc2nonc2C=Cc2nonc2C=Cc2nonc2C=Cc2nonc21,transcription activity in SE302 cells without SALPR expression,[1],did not increase the transcription activity
same,antagonism of suppression of transcription activity by relaxin-3,SALPR,antagonized suppression of transcription activity by relaxin-3
